The experiment is filed under the species Mus musculus. In words: Protective index, ratio of TD50 for mouse by rotarod test to ED50 for mouse by scMET test. It is filed as functional.

This is an account of results in ChEMBL document CHEMBL1155915, “Anticonvulsant activity of some xanthone derivatives” (Bioorg Med Chem, 2008).

In the case of `CCCC(CCC)C(=O)[O-].[Na+]` [VALPROATE SODIUM], the PI is on record as 2.3.
